By UniProt entry, the sequences of proteins in these tests, tags left out.
UniProt P00533, whole entry: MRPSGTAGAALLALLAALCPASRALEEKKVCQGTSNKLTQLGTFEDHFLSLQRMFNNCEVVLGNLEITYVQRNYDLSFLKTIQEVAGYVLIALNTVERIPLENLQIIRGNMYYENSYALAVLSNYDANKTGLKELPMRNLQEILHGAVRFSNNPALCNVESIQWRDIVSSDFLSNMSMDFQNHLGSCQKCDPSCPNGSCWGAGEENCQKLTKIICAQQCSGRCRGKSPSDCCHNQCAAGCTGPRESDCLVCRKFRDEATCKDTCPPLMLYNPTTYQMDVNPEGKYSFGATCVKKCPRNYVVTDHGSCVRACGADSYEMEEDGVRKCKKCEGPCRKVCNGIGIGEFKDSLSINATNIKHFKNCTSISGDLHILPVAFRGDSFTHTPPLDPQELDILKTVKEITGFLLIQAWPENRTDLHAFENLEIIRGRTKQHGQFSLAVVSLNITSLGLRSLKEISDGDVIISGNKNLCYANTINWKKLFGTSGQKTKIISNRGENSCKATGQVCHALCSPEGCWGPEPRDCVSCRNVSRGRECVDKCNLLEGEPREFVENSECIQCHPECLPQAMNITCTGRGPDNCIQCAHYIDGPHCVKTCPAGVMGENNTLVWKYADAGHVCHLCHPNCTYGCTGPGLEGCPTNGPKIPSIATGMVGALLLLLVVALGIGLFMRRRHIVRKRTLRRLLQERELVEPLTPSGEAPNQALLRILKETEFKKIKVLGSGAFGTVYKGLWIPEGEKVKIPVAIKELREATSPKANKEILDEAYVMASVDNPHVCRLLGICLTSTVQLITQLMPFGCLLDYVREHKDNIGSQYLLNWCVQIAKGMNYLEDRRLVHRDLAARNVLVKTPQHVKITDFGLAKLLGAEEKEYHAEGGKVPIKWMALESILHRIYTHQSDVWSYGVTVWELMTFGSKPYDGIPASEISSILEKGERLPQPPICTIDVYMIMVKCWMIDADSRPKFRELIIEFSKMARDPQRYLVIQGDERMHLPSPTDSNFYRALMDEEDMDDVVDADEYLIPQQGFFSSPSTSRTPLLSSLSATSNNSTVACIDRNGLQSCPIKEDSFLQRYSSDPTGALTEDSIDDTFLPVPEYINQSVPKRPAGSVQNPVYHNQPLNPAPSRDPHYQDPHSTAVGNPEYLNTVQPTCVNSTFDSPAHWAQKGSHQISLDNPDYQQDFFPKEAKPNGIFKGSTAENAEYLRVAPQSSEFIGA

According to ChEMBL document CHEMBL5230100, “Novel quinazoline-based EGFR kinase inhibitors: A review focussing on SAR and molecular docking studies (2015-2019)” (Eur J Med Chem, 2020):

Biological target: Epidermal growth factor receptor (Homo sapiens, UniProt P00533)

IC50: 24.4 nM
Structure (SMILES): C=CC(=O)Nc1ccccc1Nc1ncnc2cc(OC)c(OCCN3CCOCC3)cc12
